# Antibody variant affinities, Ab-14 heavy chain, assay 1

From the AlphaSeq antibody data of Engelhart et al. 2022 (doi:10.1038/s41597-022-01779-4), copy in the FLAb collection.

All variants were tested on one target, the spike HR2 peptide PDVDLGDISGINAS (SARS-CoV-2).

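The parent was found by panning a naive human phage display library on the peptide. AAYL49 was designed without a model: most single CDR substitutions and a random sample of double and triple ones. In AlphaSeq, yeast of one mating type display the scFv and yeast of the other type display the target. The frequency of each diploid, read from paired DNA barcodes, reflects how well the two displayed proteins bind. Each replicate has its own calibration line, from reference interactions of the BCL2 family. Each pool was mated in three replicate cultures.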

Parent: Ab-14, a human scFv built as VH, three GGGGS repeats, VL. Only the CDRs of the heavy chain vary.
VH: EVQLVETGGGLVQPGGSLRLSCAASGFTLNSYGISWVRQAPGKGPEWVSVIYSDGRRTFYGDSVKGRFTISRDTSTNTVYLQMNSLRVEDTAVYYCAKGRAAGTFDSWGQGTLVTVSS
VL: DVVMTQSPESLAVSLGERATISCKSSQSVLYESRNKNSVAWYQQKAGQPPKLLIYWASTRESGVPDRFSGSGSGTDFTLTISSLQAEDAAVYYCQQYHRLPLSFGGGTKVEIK

Substitutions are numbered in sequence along the VH above, starting at 1 (not Kabat). Numbers give log10(Kd / nM), so 0 is 1 nM and 3 is 1 µM. Smaller is tighter. A pair that was not seen in that replicate is written "nd"; this usually means weak binding, but a binder can also be missed. For reference, the parent read 0.65 as the reference entry and 4.11 (one replicate of three) as a member of this library. Background: pairings of library AAYL49 with three empty control strains gave a value in 15% of cases (median 4.06, 5th percentile 2.83). Values in that range, when seen in few replicates, are hard to tell from nonspecific mating. Also given: how often the same scFv was detected with the empty control strains, with their mean in brackets.

{"changes": "S31M A102N G103I", "log10 Kd (nM) by replicate": "5.65 / 3.38 / nd", "empty controls": "2/9 (3.58)"}
{"changes": "I34K R100Y A102N", "log10 Kd (nM) by replicate": "nd / nd / nd", "empty controls": "0/9"}
{"changes": "N30C R100W D106G", "log10 Kd (nM) by replicate": "nd / nd / nd", "empty controls": "1/9 (4.27)"}
{"changes": "Y32H G55Y T104Y", "log10 Kd (nM) by replicate": "nd / nd / nd", "empty controls": "0/9"}
{"changes": "S35I Y52K F105C", "log10 Kd (nM) by replicate": "nd / nd / nd", "empty controls": "0/9"}
{"changes": "Y60R V64R S107F", "log10 Kd (nM) by replicate": "nd / nd / 3.97", "empty controls": "2/9 (3.66)"}
{"changes": "Y52R D54S S107A", "log10 Kd (nM) by replicate": "nd / 3.13 / 4.68", "empty controls": "3/9 (3.42)"}
{"changes": "I51W A101V", "log10 Kd (nM) by replicate": "nd / nd / nd", "empty controls": "0/9"}
{"changes": "L29R Y32G A102D", "log10 Kd (nM) by replicate": "nd / nd / nd", "empty controls": "1/9 (4.68)"}
{"changes": "F27W F59A", "log10 Kd (nM) by replicate": "0.60 / 0.87 / 0.78", "empty controls": "1/9 (4.59)"}
{"changes": "I51V Y52S G103T", "log10 Kd (nM) by replicate": "nd / nd / nd", "empty controls": "0/9"}
{"changes": "N30D S35N", "log10 Kd (nM) by replicate": "0.84 / 0.97 / 0.99", "empty controls": "1/9 (2.77)"}
{"changes": "F27K K65L A101Y", "log10 Kd (nM) by replicate": "nd / 1.33 / 1.68", "empty controls": "0/9"}
{"changes": "V50I D54V D62V", "log10 Kd (nM) by replicate": "nd / nd / nd", "empty controls": "0/9"}
{"changes": "S53L D54P R56I", "log10 Kd (nM) by replicate": "nd / nd / nd", "empty controls": "1/9 (3.56)"}
{"changes": "S31R G33Q", "log10 Kd (nM) by replicate": "nd / nd / nd", "empty controls": "0/9"}
{"changes": "F27S R57M K65R", "log10 Kd (nM) by replicate": "4.38 / 3.59 / nd", "empty controls": "1/9 (4.35)"}
{"changes": "Y60K K65I G99A", "log10 Kd (nM) by replicate": "nd / nd / nd", "empty controls": "0/9"}
{"changes": "S31Y I51S R100A", "log10 Kd (nM) by replicate": "4.23 / 3.69 / 4.48", "empty controls": "3/9 (3.88)"}
{"changes": "T28Y I34Y D62Y", "log10 Kd (nM) by replicate": "3.59 / nd / nd", "empty controls": "1/9 (2.73)"}
{"changes": "R57W D106K S107N", "log10 Kd (nM) by replicate": "nd / nd / nd", "empty controls": "1/9 (3.25)"}
{"changes": "T58L T104Q D106K", "log10 Kd (nM) by replicate": "nd / nd / 5.17", "empty controls": "0/9"}